In data set [1] the test system is M2 macrophage (RAW264.7 differentiated into M2-type with IL-4 and IL-13). As to the kind of experiment: MTS cell viability assay, M2-type macrophage. The data set is classed as cell-based, mouse. Conditions: 24 hours, read-out: half-maximal inhibitory concentration (IC50) against M2 macrophage. As to the method:
(§1) More specifically, dKLA (SEQ ID NO: 2), MEL (SEQ ID NO: 1), MEL-dKLA (SEQ ID NO: 3; […]-d[KLAKLAKKLAKLAK]) peptide and 5-carboxyl tetramethylrhodamine (TMR)-conjugated dKLA, MEL and MEL-KLA peptides were purchased from GenScript (Piscataway, N.J., USA). TMR was conjugated with the amino group located at the N-terminal of the peptide. Regarding all of the peptides, 95% or greater purified peptides were used. Murine Lewis lung carcinoma (LLC) cells and macrophage RAW264.7 of mice were cultured in Dulbecco's modified Eagle's medium (DMEM; Welgene, Korea) to which 10% heat-inactivated fetal bovine serum (Welgene), 100 U/mL penicillin and 100 μg/mL streptomycin (Invitrogen, CA, USA) were added. Macrophage (RAW264.7) differentiated into M2-type was treated with IL-4 and IL-13 in the medium for 24 hours. After the treatment, the cells were cultured in a state in which serum was insufficient for 48 hours. M1-type macrophage was treated with 1 ng/mL of LPS for 24 hours to induce differentiation.
The cell viability test was measured via the MTS assay. RAW264.7 macrophage was differentiated into M1-type or M2-type macrophage which was inoculated onto a 96-well plate at 3×10^4 cells/well. The next day, the macrophage was treated with each of PBS, dKLA, MEL and MEL-dKLA. […] Then, fluorescence was measured at 490 nm to measure cell viability. […]
Background: Formazan colour is commonly taken as a measure of viable cells.

A short description of data set [2]: MTS cell viability assay, M1-type macrophage. The data set is classed as cell-based. Conditions: mouse, RAW264.7 macrophages differentiated into M1-type with LPS, 0.6 to 0.8 μM. As to the method: as §1
The cell viability test was measured via the MTS assay. RAW264.7 macrophage was differentiated into M1-type or M2-type macrophage which was inoculated onto a 96-well plate at 3×10^4 cells/well. The next day, the macrophage was treated with each of PBS, dKLA, MEL and MEL-dKLA. […] Then, fluorescence was measured at 490 nm to measure cell viability.

The subject of data set [3] is LLC tumor cells. The data set is described as follows: Cell cycle via PI staining, flow cytometry. The data set is classed as cell-based, mouse. Conditions: 0.1 to 1 μM. On the procedure: as §1
More specifically, cells were fixed with 70% cold ethanol and stored at 20° C. for 24 hours. Then, propidium iodide (PI) was added to PBS containing 0.1% Triton X-100 and 20 μg/ml RNase such that 50 μg/ml concentration was achieved. The mixture was applied to the cell. Measurement was done using a flow cytometry method.
In general terms: Flow cytometry measures light scatter and fluorescence of single cells or particles in a stream.

What is called viability is the share of living cells, or the viability signal relative to a control. A low value points to a greater loss of cells. For `CC[C@H](C)[C@H](NC(=O)CN)C(=O)NCC(=O)N[C@@H](C)C(=O)N[C@H](C(=O)N[C@@H](CC(C)C)C(=O)N[C@@H](CCCCN)C(=O)N[C@H](C(=O)N[C@@H](CC(C)C)C(=O)N[C@H](C(=O)N[C@H](C(=O)NCC(=O)N[C@@H](CC(C)C)C(=O)N1CCC[C@H]1C(=O)N[C@@H](C)C(=O)N[C@@H](CC(C)C)C(=O)N[C@H](C(=O)N[C@@H](CO)C(=O)N[C@@H](Cc1c[nH]c2ccccc12)C(=O)N[C@H](C(=O)N[C@@H](CCCCN)C(=O)N[C@@H](CCCNC(=N)N)C(=O)N[C@@H](CCCCN)C(=O)N[C@@H](CCCNC(=N)N)C(=O)N[C@@H](CCC(N)=O)C(=O)N[C@@H](CCC(N)=O)C(=O)NCC(=O)NCC(=O)NCC(=O)NCC(=O)N[C@@H](CO)C(=O)N[C@H](CCCCN)C(=O)N[C@H](CC(C)C)C(=O)N[C@H](C)C(=O)N[C@H](CCCCN)C(=O)N[C@H](CC(C)C)C(=O)N[C@H](C)C(=O)N[C@H](CCCCN)C(=O)N[C@H](CCCCN)C(=O)N[C@H](CC(C)C)C(=O)N[C@H](C)C(=O)N[C@H](CCCCN)C(=O)N[C@H](CC(C)C)C(=O)N[C@H](C)C(=O)N[C@H](CCCCN)C(=O)O)[C@@H](C)CC)[C@@H](C)CC)[C@@H](C)O)[C@@H](C)O)C(C)C)C(C)C` [MEL-dKLA], the IC50 in data set [1] was found to be 0.85 µM. The compound further gave a viability at 24 h in data set [2] of 66 to 86%. Besides, in data set [3], the “cytotoxicity against LLC tumor cells” value was “did not exhibit cytotoxicity”.

The values above are taken from patent US11484601B2, “Targeting M2-like tumor-associated macrophages by using melittin-based proapoptotic peptide” (TWI[…]., priority 2018, dated 2022).
